The results in this text go back to US20260384421A1, “NOVEL COMPOUNDS THAT CAN BE USED AS THERAPEUTIC AGENTS” (published 2026).

Where two headings read alike, the source gives them in different places.

One test has as its system SW-1353 cells. Nature of the test: alamarBlue proliferation assay with SW-1353 cells (glucose-free L-15 medium). The note with it: read-out: Activity on SW-1353: IC50, Leibovitz's L-15 medium, 10% FBS, 0% CO2.
The next test concerns HPEKp cells. Nature of the test: proliferation assay with human epidermal keratinocyte progenitors (HPEKp), selectivity versus MDA-MB-231.
In test [1] the test system is mitochondrial transmembrane potential Δψm in A-549 cells. The experiment in a line: mitochondrial activity assay (TMRE staining, mitochondrial transmembrane potential) on A-549 cells. The note with it: A-549 cells, compounds at 10 μM, 2 h 40 min, TMRE staining, relative to DMSO = 1.0.
The mark [2] stands for this setting: read-out: Activity (HPEK), HPEK cells (HPEKp), antiproliferative activity, class by IC50.
Where [3] appears, read: read-out: Activity (HPEK): antiproliferative activity on HPEK cells, IC50 category, HPEK cells cultivated in CnT-Prime medium.

On to `O=C(c1ccc(Oc2ccc(C3CCC4(CC3)OCCO4)cc2CO)cc1)N1CC2CN(Cc3ccc(Cl)cc3)CC2C1` (stereo not drawn), for which the values for the IC50 in the test on SW-1353 cells and in the test with HPEKp cells (setting [2]) were not above 0.2 µM and less than 10 µM, respectively. In test [1], the “Activity: relative mitochondrial transmembrane potential Δψm” value was “Δψm ≤0.7”.

Turning to `O=C(c1ccc(Oc2ccc(C3CCC4(CC3)OCCCO4)cc2CO)cc1)N1CCN(Cc2ccccc2)CC1`, the figures for the IC50 with SW-1353 cells and with HPEKp cells (setting [3]) were not above 0.2 µM and less than 5 µM, respectively. In addition, in test [1], the “Activity: relative mitochondrial transmembrane potential Δψm” value is listed as “Δψm ≤0.7”.

Turning to `O=C(c1ccc(Oc2ccc(C3CCC4(CC3)OCCO4)cc2CO)cn1)N1CCN(Cc2ccccc2)CC1`, the IC50 with SW-1353 cells was not above 0.2 µM; in the test on HPEKp cells (setting [3]) it was more than 10 µM. Also, the “Activity: relative mitochondrial transmembrane potential Δψm” value in test [1] was “Δψm ≤0.7”.

As to `COC(=O)c1ccc(CN2CCN(C(=O)c3ccc(Oc4ccc(C5CCC6(CC5)OCCO6)cc4CO)cc3)CC2)cc1`, the IC50 was not above 0.2 µM in the test with SW-1353 cells and less than 10 µM in the test on HPEKp cells (setting [2]). Further, the “Activity: relative mitochondrial transmembrane potential Δψm” value in test [1] is “Δψm ≤0.7”.
